This passage reports growth results from PubChem BioAssay (NCI).

Each structure is given as a SMILES string. “And” between values parts separate entries of the source, which are not always exact repeats. Identical values can stand only once. The list shows a part of the results, in another mix than the full data.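 Single-concentration screen, 48 h exposure, 96-well plates. Endpoint: percent growth. Below 10 = active.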 The source made the active and inactive calls.

For the experiment, the system named is MDA-MB-468 breast. Briefly: NCI-60 one-dose screen, 48 h (100 = growth as untreated, 0 = no growth, -100 = all killed). To be noted: 10 µM unless noted.
As to `C=CCOP(O)OCC=C`, the growth was inactive: 105%.

Turning to `CCOP(=O)(CCBr)OCC`, the growth is inactive: 99.8% and inactive: 95.6%.

Regarding `O=C1CSC(C(Cl)(Cl)Cl)N1c1ccc(Cl)cc1` (stereo not given), the growth was inactive: 94.5%.

As for `ClCC1CS1` (stereo not given), the growth was inactive: 105%.

On to `ClCCN1CCc2ccccc2C1`, for which the growth was inactive: 100%.

Consider `Cc1cc(C)cc(OP(=O)(Cl)Oc2cc(C)cc(C)c2)c1`, for which the growth was inactive: 117%.

On to `CCOC(=O)NC(c1ccccc1[N+](=O)[O-])P(=O)(O)Nc1ncn[nH]1` (stereo not given), for which the growth is inactive: 119%.

With `Nc1cccc([As](=O)(O)c2ccccc2)c1`, the growth is inactive: 96.3%.

Regarding `Nc1nnc(N)nn1`, the growth was inactive: 114%.

For the molecule `O=[N+]([O-])c1ccc(Nc2ccc(Oc3ccc([N+](=O)[O-])cc3[N+](=O)[O-])cc2)c([N+](=O)[O-])c1`, the growth was inactive: 37.4%.

On to `ClCCNC(Cc1ccccc1)c1ccccc1` (stereo not given), for which the growth is inactive: 101%.

Turning to `O=C(O)CCc1ccc(N(CCCl)CCCl)cc1`, the growth is inactive: 94.5%.

Regarding `ClCCN1CCNCC1`, the growth was inactive: 98.4%.

As for `O=C(C(=O)c1ccc([N+](=O)[O-])cc1[N+](=O)[O-])c1ccc([N+](=O)[O-])cc1[N+](=O)[O-]`, the growth was inactive: 109%.

Consider `CCOC(=O)N1CCN(CCCl)CC1`, for which the growth is inactive: 94%.

Regarding `CCCC1OP(N)(=O)OCC1CC` (stereo not given), the growth is inactive: 112% and inactive: 92.7%.

For the molecule `ClP1Nc2cncnc2N1` (stereo not given), the growth was inactive: 113%.

With `O=[As]c1ccc(S(=O)(=O)Nc2ccccc2)cc1` (stereo not given), the growth is active: -40.7%.

As for `CCN(CCCl)c1ccc(CCC(=O)O)cc1`, the growth is inactive: 104%.

For the molecule `CCOP(=S)(OCC)SCCCl`, the growth is inactive: 108%.

With `COc1cc([N+](=O)[O-])cc([N+](=O)[O-])c1`, the growth is inactive: 107%.

On to `O=[N+]([O-])C1C(O)C(O)C([N+](=O)[O-])C(O)C1O` (stereo not given), for which the growth was inactive: 93.1%.

Take `ClCCN1Cc2ccccc2C1`: the growth was inactive: 91.3%.

As for `CCOP(=O)(Nc1ccccc1)OCC`, the growth was inactive: 96.6%.

Regarding `COc1cc([N+](=O)[O-])c([N+](=O)[O-])cc1OC`, the growth is inactive: 90.3% and inactive: 112%.

As to `O=[N+]([O-])c1ccc(Oc2cccc(Oc3ccc([N+](=O)[O-])cc3[N+](=O)[O-])c2)c([N+](=O)[O-])c1`, the growth was active: 3.69%.

On to `COc1cccc([As]=O)c1` (stereo not given), for which the growth is active: -60.3%.

`O=[As]1(O)c2ccccc2-c2ccccc21`: the growth is inactive: 103%.

Turning to `CCSC(O)C(Cl)(Cl)Cl` (stereo not given), the growth was inactive: 90%.

In the case of `O=[N+]([O-])c1ccc([N+](=O)[O-])cc1`, the growth was inactive: 108%.

Turning to `O=C(N(CCCl)CCCl)C(Cl)(Cl)Cl`, the growth was inactive: 97.6%.

Take `[N-]=[N+]=NS(=O)(=O)c1ccc([N+](=O)[O-])cc1`: the growth is inactive: 101%.

For `O=C(O[C@H]1CN2CCC1CC2)C1NCc2ccccc2[C@@H]1c1ccccc1` (stereo not given in full), the growth was inactive: 93.1%.

`ClCCNCC1COc2ccccc2O1` (stereo not given): the growth was inactive: 107%.

In the case of `CCOC(=O)c1sc2ncnc(NCCCl)c2c1C`, the growth was inactive: 91.1%.
